Measured values published in ChEMBL document CHEMBL1144753, “Inhibitors of DNA polymerase beta: activity and mechanism” (Bioorg Med Chem, 2008).

Tests used:
[1] = molecular target: DNA polymerase beta (Rattus norvegicus) (UniProt P06766); experiment: Inhibition of lyase activity of DNA polymerase beta
[2] = molecular target: DNA polymerase beta (Rattus norvegicus) (UniProt P06766); experiment: Inhibition of polymerase activity of DNA polymerase beta

`C=C(C)[C@@H]1CC[C@]2(C(=O)O)CC[C@]3(C)[C@H](CC[C@@H]4[C@@]5(C)CC[C@H](O)C(C)(C)[C@@H]5CC[C@]43C)[C@@H]12` [BETULINIC ACID] was tested, and the IC50 [1] was 33.7 µM and the IC50 [2] was 46.2 µM.

`O=c1ccc2ccc(Oc3cc4ccc(O)cc4oc3=O)cc2o1` [EDGEWORIN] was tested, and the IC50 [1] was 38.9 µM and the IC50 [2] was 31.4 µM.
